Earlier results as cited in patent US4489052A, “Quantitative autoradiographic mapping of focal herpes simplex virus encephalitis using a radiolabeled antiviral drug” (priority 1982, dated 1984).

Conditions: rat; cited from earlier work

In the case of `Cc1cn([C@@H]2O[C@H](CO)[C@@H](O)[C@@H]2F)c(=O)[nH]c1=O` [FMAU], the excretion in urine is given as “most FMAU is excreted unchanged in the urine”.
